The record followed here is patent US11779630B2, “Peptides and methods of using the same” (SERPIN PHARMA, LLC, priority 2020, dated 2023).

The target of the test is T1, Recombinant LRP1 (Cluster II) (Homo sapiens, UniProt Q07954).
T1 sequence (Q07954 786-1165 limits assumed): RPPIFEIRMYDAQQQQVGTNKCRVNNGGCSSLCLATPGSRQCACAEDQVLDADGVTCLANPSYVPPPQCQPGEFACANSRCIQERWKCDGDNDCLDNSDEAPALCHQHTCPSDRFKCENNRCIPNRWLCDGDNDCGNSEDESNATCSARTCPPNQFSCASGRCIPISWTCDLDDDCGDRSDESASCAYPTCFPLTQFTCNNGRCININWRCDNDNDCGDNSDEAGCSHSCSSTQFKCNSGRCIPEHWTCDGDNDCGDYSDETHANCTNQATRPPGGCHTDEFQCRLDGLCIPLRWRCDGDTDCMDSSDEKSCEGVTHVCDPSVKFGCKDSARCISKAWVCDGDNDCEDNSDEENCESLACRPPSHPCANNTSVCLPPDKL
Put plainly: LRP1 binding assay, ELISA plate with biotinylated peptides. The following applies: biotinylated peptide, increasing concentrations, streptavidin HRP (FIG. 3).

In the case of “V K F N K P F V F L M I E Q N T K (VKFNKPFVFLMIEQNTK; listed as Homo sapiens) [SP16]”, the “binding to LRP1 Cluster II” value is recorded as “capable of binding to LRP1 Cluster II”.
Turning to “FPKMVPQFNTELKIFPEVNIK (FPKMVPQFNTELKIFPEVNIK; peptide derivative) [SP34, reference compound]”, the “binding to LRP1 Cluster II” value is listed as “did not bind to LRP1 Cluster II”.
